From ChEMBL document CHEMBL5576121, “Halogen Bonding Hot Spots as a Constraint in Virtual Screening: A Case Study of 5-HT7R” (J Med Chem, 2024)

Amino acid sequences for entries named in this document (tags omitted).
UniProt P34969, whole entry: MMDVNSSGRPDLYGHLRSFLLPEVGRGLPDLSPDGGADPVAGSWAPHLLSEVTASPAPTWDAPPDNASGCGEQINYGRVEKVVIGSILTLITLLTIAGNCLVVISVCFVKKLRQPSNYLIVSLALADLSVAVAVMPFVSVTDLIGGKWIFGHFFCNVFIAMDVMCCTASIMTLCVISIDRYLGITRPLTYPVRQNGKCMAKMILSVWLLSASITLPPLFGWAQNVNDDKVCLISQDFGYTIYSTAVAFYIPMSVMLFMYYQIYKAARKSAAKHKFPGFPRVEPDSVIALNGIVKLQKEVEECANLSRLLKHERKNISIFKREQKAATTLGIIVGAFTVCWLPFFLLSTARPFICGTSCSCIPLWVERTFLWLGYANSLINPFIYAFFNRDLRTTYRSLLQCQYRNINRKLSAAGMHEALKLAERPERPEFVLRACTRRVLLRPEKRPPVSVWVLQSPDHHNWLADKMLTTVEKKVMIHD

Biological target: 5-hydroxytryptamine receptor 7 (Homo sapiens, UniProt P34969)
Experiment: Displacement of [3H]-5-CT from human 5-HT7b receptor expressed in HEK293 cell membranes incubated for 1 hr by Microbeta Topcount instrument based analysis
Conditions: Membrane

K: 47 nM
SMILES: CC1=C(CCN2CCN(c3cccc(Cl)c3)CC2)C(C)(C)CCC1
